Measurements reported in US7261876B2, “Multivalent constructs for therapeutic and diagnostic applications” (Bracco International BV, priority 2002, dated 2007).

The chains behind the UniProt entries cited, without tags or fusion partners. Residues count along the entry.
UniProt P35968, 20-1356: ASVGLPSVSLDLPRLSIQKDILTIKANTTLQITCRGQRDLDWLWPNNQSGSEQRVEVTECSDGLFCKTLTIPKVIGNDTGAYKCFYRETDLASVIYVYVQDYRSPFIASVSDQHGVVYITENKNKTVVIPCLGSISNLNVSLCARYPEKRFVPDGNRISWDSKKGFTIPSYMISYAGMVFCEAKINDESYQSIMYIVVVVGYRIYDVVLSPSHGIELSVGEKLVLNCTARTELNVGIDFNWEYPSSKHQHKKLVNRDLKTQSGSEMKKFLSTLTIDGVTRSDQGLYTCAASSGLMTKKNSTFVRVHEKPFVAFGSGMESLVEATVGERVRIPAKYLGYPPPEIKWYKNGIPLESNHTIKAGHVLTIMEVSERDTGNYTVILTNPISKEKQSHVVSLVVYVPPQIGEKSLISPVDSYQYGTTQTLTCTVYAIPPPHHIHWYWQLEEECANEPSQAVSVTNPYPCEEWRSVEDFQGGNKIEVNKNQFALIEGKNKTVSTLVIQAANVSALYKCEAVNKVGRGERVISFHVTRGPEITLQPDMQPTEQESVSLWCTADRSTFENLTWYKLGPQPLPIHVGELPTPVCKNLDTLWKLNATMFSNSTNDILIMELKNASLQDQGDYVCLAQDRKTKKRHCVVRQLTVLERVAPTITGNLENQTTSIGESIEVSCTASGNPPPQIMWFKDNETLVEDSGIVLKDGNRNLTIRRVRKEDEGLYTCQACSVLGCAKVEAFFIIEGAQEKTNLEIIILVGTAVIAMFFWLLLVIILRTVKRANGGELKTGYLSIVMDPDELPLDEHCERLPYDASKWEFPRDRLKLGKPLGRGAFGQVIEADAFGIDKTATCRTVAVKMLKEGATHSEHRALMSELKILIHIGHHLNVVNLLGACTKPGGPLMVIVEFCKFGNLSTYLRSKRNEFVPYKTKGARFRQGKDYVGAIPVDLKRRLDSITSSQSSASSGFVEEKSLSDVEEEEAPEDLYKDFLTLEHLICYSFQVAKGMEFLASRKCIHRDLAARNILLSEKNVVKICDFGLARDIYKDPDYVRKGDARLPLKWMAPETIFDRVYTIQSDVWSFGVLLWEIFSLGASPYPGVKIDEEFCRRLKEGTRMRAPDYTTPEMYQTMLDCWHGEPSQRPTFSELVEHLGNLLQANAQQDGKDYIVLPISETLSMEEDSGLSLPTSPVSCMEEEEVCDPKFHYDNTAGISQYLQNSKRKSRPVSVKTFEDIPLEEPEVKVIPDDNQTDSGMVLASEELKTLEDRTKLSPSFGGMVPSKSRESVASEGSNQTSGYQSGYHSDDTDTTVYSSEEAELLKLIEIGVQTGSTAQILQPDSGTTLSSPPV

Biological target: T1, KDR-expressing cells (Homo sapiens, UniProt P35968)
T1 construct: Both PCR products were digested with Not1 and ligated together to create the full-length receptor; V5-His (encoded by the vector); expressed in transfected cells; host or cells: 293H cells (Invitrogen cat. # 11631), transient lipofectamine 2000 transfection
Assay: Displacement assay competing with P12-XB/streptavidin-HRP complex for binding to KDR-expressing cells
Details: complex concentration 5.5 nM

SMILES: CC[C@H](C)[C@H](NC(=O)[C@H](CCC(=O)O)NC(=O)[C@H](CC(=O)O)NC(=O)[C@H](Cc1ccc(O)cc1)NC(=O)[C@H](Cc1ccc(O)cc1)NC(=O)[C@H](Cc1c[nH]c2ccccc12)NC(=O)[C@H](CC(=O)O)NC(=O)[C@H](CCC(N)=O)NC(=O)[C@H](C)NC(C)=O)C(=O)N[C@@H](CC(C)C)C(N)=O [F2]
- inhibition of P12-XB streptavidin-HRP complex binding: failed to significantly inhibit complex binding at one micromolar
